In test [1] the target is HA-CXCR4 (UniProt P61073).
For test [2], the target named is CXCR4-TANGO (UniProt P61073).
Test [3] concerns the target ACKR3-TANGO (UniProt P25106).

Amino acid sequences for entries named in this document (tags omitted). A change or cut given only in a name is not applied to a line headed by its entry. Residues count along the entry.
UniProt P61073, whole entry: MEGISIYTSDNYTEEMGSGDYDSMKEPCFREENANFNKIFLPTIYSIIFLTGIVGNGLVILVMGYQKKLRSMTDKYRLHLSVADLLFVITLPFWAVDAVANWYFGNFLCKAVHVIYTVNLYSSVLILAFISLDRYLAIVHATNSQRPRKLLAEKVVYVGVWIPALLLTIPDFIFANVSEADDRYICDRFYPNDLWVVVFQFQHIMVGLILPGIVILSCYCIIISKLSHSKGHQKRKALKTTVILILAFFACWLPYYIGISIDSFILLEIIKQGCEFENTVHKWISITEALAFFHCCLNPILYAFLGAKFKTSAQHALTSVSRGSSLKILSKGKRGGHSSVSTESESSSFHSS
UniProt P25106: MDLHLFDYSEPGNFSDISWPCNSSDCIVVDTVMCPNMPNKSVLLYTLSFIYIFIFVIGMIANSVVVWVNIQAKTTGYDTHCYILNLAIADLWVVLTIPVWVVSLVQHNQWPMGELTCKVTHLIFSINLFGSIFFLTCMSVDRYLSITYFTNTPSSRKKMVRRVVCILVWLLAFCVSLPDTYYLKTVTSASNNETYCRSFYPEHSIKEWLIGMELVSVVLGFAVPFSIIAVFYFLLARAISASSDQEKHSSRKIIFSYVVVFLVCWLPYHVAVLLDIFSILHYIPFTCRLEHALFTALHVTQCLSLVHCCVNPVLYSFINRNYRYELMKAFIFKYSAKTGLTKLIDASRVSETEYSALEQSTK
UniProt P48061, 22-89: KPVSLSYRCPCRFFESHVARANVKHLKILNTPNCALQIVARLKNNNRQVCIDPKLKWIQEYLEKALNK

In test [1], “CXCL12 (stromal cell-derived factor 1α) (from UniProt P48061-2 22-89) (ligand)” had an ERK1/2 phosphorylation (pERK1/2/ERK1/2 by Western blot) in HEK293 cells transfected with CXCR4, 100 nM CXCL12, time series of 4 fold. The PRESTO-Tango β-arrestin recruitment assay for CXCR4, luminescence as fold of vehicle-treated cells, 200 nM CXCL12 (fold of vehicle-treated cells) in test [2] turned out to be 1.8. Besides, in test [3], the PRESTO-Tango β-arrestin recruitment assay for ACKR3, luminescence as fold of vehicle-treated cells, 200 nM CXCL12 (fold of vehicle-treated cells) turned out to be 48.

These data come from PMC6152952.
